Test system: E. coli DH5a cells

## n-butanol
0.5% n-butanol in LB medium
  growth rate: approximately halved
  max OD600: approximately halved
1% n-butanol in LB medium
  growth rates: could not be quantified
  max OD600, fold less: about 40 fold
